Reference: patent publication US8404681B2, “Xanthones, thioxanthones and acridinones as DNA-PK inhibitors” (Luitpold Pharmaceuticals, Inc., priority 2003, dated 2013)

Protein sequences, listed by entry. Tags and fused reporters are not part of them.
UniProt P78527, whole entry: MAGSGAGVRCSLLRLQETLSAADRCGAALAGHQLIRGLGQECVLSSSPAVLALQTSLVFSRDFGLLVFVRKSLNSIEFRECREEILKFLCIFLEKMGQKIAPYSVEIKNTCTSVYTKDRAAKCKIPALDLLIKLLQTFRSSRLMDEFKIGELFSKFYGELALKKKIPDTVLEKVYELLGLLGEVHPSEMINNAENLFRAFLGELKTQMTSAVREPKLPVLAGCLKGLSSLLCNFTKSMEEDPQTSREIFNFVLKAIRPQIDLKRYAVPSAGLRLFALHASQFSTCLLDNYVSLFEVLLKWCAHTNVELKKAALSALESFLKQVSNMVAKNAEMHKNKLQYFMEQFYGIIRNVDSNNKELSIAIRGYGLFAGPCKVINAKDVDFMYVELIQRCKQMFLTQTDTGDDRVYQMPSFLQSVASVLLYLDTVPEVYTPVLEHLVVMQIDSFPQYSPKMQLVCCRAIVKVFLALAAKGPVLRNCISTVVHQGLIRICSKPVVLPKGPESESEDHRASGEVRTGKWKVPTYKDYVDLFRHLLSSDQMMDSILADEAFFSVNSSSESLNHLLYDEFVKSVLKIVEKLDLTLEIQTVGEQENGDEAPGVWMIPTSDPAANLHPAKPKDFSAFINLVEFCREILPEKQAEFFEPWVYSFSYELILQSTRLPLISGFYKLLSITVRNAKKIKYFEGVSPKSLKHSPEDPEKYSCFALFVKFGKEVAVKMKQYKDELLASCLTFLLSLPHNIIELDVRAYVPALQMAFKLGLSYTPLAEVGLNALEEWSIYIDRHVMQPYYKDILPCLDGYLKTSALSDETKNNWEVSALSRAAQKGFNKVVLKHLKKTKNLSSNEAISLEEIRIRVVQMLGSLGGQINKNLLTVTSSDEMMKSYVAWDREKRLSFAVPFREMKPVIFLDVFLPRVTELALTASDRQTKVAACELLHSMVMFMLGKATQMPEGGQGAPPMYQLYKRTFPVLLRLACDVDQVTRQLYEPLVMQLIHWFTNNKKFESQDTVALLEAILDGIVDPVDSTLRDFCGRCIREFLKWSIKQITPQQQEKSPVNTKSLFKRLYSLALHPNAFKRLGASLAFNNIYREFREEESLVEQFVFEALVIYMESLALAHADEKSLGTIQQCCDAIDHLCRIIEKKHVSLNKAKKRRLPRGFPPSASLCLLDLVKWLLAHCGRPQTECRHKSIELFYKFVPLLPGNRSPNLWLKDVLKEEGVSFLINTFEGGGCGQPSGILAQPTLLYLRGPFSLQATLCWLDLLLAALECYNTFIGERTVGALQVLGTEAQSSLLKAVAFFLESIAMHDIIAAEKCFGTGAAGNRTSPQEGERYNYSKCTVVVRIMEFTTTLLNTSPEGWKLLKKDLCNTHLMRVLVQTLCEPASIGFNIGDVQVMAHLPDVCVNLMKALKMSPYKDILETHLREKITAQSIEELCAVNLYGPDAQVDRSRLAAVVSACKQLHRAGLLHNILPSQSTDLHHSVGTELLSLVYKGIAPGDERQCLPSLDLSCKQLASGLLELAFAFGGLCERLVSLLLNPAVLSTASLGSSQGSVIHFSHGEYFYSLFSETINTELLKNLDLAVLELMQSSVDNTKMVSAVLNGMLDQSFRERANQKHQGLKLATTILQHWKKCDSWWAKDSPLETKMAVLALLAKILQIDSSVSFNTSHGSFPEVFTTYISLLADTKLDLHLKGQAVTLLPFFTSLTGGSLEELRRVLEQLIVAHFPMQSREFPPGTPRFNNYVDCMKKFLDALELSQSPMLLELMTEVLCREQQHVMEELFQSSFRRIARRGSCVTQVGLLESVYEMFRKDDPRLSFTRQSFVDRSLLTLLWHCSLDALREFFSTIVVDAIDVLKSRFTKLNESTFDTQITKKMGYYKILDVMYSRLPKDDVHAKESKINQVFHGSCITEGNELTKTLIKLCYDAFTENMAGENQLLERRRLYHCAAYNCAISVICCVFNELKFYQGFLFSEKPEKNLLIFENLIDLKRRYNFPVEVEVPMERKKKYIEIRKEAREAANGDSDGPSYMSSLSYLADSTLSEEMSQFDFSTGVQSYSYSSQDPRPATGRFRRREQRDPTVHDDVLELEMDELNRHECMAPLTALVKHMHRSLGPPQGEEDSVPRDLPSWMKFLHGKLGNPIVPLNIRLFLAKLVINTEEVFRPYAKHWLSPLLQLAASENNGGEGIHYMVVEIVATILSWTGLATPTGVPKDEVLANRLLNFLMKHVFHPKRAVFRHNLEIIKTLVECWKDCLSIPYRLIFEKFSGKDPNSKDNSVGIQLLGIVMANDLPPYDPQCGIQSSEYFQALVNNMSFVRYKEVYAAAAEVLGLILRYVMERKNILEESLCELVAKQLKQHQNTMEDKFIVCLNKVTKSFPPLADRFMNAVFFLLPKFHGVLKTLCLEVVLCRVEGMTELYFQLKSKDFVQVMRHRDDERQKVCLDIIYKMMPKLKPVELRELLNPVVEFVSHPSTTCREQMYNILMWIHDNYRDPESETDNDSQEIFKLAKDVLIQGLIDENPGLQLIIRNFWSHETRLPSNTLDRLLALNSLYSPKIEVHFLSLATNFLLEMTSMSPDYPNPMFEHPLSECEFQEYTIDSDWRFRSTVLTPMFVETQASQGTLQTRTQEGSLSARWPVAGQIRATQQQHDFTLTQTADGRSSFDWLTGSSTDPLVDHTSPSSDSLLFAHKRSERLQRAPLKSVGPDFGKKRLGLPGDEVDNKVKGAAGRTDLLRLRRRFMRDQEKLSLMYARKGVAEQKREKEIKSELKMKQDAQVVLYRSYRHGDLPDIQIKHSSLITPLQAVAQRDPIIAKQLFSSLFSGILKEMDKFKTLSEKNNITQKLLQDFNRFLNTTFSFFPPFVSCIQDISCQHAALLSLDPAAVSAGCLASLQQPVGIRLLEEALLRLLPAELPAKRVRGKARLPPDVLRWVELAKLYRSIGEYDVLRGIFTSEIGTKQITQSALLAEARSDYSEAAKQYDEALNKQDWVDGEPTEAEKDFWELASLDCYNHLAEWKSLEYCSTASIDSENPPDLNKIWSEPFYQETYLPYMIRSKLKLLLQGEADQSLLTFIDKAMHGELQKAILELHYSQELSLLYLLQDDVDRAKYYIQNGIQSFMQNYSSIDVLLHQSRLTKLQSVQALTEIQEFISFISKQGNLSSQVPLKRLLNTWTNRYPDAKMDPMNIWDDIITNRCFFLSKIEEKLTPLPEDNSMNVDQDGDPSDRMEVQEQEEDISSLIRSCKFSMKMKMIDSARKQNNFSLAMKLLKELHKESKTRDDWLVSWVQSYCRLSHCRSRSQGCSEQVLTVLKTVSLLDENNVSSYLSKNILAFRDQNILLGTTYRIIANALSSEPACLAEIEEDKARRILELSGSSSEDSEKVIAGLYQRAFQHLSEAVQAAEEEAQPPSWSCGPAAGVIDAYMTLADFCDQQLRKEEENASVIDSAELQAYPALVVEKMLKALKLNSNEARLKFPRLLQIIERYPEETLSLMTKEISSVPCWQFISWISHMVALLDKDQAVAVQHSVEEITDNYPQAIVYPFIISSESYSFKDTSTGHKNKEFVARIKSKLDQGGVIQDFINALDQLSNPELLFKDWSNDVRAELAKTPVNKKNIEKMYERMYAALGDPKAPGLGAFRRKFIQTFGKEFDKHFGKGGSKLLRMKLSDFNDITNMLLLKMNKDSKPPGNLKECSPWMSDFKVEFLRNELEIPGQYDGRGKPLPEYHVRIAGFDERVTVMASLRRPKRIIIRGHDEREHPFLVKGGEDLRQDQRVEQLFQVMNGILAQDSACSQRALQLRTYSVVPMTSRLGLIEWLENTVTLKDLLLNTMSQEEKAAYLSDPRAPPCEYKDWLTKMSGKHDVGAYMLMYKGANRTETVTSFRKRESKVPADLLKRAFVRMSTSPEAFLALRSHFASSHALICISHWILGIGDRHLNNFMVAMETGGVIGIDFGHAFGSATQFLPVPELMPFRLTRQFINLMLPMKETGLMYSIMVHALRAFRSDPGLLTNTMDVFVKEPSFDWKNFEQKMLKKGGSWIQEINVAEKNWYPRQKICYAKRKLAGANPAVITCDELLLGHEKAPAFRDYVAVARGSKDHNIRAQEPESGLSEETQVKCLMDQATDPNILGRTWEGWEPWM

Molecular target: T1, DNA-PK (Homo sapiens, UniProt P78527)
T1 construct: HeLa S3 cells (ATCC CCL-2.2; Batch F12594) were raised in MEM-Joklik media; endogenous in cells; host or cells: HeLa S3 cells (ATCC CCL-2.2); Endogenous enzyme purified in house: S100-2 fraction, then Q-Sepharose FF, then SP-Sepharose FF, giving fraction IV
Assay: Standard DNA-PK assay (phosphorylation of p53 peptide substrate)
Assay type: biochemical
Procedure: Reactions were carried out at room temperature. Reactions were started by addition of ATP and stopped by application to phosphocellulose paper. Reaction products spotted onto phosphocellulose paper were washed five times with a total volume of at least 250 mL 10% acetic acid or 150 mM phosphoric acid. The paper was air dried and radioactivity was determined in a Beckman LS6000IC scintillation counter.

## COC[C@H]1OC(=O)c2coc3c2[C@@]1(C)C1=C(C3=O)[C@@H]2CCC(=O)[C@@]2(C)C[C@H]1OC(C)=O [wortmannin, reference compound]
  IC50: 100 to 250 nM
